Results as given in ChEMBL document CHEMBL4002585, “Novel CLK1 inhibitors based on N-aryloxazol-2-amine skeleton - A possible way to dual VEGFR2 TK/CLK ligands” (Eur J Med Chem, 2017).

The chains behind the UniProt entries cited, without tags or fusion partners. Where a name states a change or a piece, a line headed by the entry shows the natural chain unless it says otherwise.
UniProt P49761: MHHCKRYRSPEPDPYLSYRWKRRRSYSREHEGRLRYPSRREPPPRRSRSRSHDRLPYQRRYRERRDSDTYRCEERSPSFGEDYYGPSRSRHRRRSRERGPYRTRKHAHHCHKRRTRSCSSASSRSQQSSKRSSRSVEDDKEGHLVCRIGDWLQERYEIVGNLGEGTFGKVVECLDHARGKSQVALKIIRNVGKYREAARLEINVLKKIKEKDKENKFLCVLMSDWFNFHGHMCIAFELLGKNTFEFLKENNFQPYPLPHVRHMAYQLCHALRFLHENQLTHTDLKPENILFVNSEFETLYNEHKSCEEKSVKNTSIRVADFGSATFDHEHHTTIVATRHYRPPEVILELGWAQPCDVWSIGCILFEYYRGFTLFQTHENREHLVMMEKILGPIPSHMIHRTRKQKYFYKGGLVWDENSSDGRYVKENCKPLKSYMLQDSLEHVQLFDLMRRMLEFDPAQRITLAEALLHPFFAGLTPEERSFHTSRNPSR

Target: Dual specificity protein kinase CLK3 (Homo sapiens, UniProt P49761)
Experiment: Inhibition of human CLK3 (275 to 632 residues) expressed in Escherichia coli BL21(DE3) preincubated for 10 mins followed by substrate addition by pyruvate kinase and lactate dehydrogenase coupled enzyme assay

Q: Which IC50 does the source give for `CCOC(=O)c1c(C(C#N)=CN)c2ccc(Cl)c(Cl)c2n1C` here?
A: Its IC50 is 530 nM.
